Measured values from patent publication US4018930A, “Substituted indolobenzazepines” (Endo Laboratories, Inc., priority 1975, dated 1977).

Columns and labels:
mice [1] = assay: Decreased Locomotor Activity (L.M.A.), primary rodent screen; assay type: in vivo; settings: po, mouse; oral dose producing score of at least -1
mice [2] = assay: Ptosis (Pto.), primary rodent screen; assay type: in vivo; settings: po, mouse; passive ptosis

Row | Compound | L.M.A. ED50 (decreased locomotor activity) (mice [1]) | Pto. ED50 (ptosis) (mice [2])
1 | C#CCN1CC[C@@H]2[C@@H](C1)c1cccc3c1N2c1ccccc1CC3 (racemic) | 36 mg/kg | 36 mg/kg
2 | C=CCN1CC[C@@H]2[C@@H](C1)c1cccc3c1N2c1ccccc1CC3.Cl (racemic) | 7 mg/kg | 11 mg/kg
